The list shows a part of the results, in another mix than the full data. Activity calls are given as the source filed them. Rule as the data show it: active = growth inhibition above about 70%; inactive = the rest.
Test: NCI Yeast Anticancer Drug Screen. Data for the mlh1 rad18 strain (AID 175)
Settings: S. cerevisiae mlh1 rad18 strain growth inhibition; at 50.0 µM; stronger effect = higher value
For `N/C=N/P(=O)(Oc1ccccc1)Oc1ccccc1`, the growth inhibition was inactive: 8.5%. For `C=CCC[P+](C)(c1ccccc1)c1ccccc1`, the growth inhibition was inactive: -14.1%. In the case of `BrCCN(CCBr)c1cccc2ccccc12`, the growth inhibition is reported as inactive: 23.4%. For `[O-]/[N+](C/[N+]([O-])=N/O)=N\O`, the growth inhibition was inactive: 31.6%. In the case of `CCCCOP(OCCCC)OCCCC`, the growth inhibition is reported as inactive: -11.7%. For `O=P1(Nc2ncccn2)OC(CCl)=NC1c1ccc(C2N=C(CCl)OP2(=O)Nc2ncccn2)cc1` (configuration not stated), the growth inhibition was inactive: 5.7%. For `O=C(OCc1ccc([N+](=O)[O-])cc1)Oc1c(Cl)cc([N+](=O)[O-])cc1[N+](=O)[O-]`, the growth inhibition was inactive: 35.2%. In the case of `CN(C)P(N)(Cl)(c1ccccc1)c1ccccc1`, the growth inhibition is reported as inactive: 1.75%. In the case of `C[Si](C)(C)CCCNCCCl`, the growth inhibition is reported as inactive: 47.8%. With `C[C@@H]1[C@@H](C)[N+]1(C)C` the growth inhibition was inactive: 4.05%. For `O=P1(N(CCCl)CCCl)OCCCN1Br` (configuration not stated), the growth inhibition was inactive: 5.45%. In the case of `CC(C)OC(=O)N1N=C(OC(C)C)OP12=NC(c1ccccc1)=NN2C` (configuration not stated), the growth inhibition is reported as inactive: 9.15%. With `O=CCCOP(=O)(N(CCCl)CCCl)N1CC1` (configuration not stated) the growth inhibition was inactive: -22.6%. With `O=[N+]([O-])c1cc([N+](=O)[O-])c(OCC(O)CO)c([N+](=O)[O-])c1` (configuration not stated) the growth inhibition was inactive: 8.9%. For `COP(=O)(OC)N(C)[Si](C)(C)C`, the growth inhibition was inactive: -18.6%. In the case of `O=[N+]([O-])c1ccc(NCCSSCCNc2ccc([N+](=O)[O-])cc2[N+](=O)[O-])c([N+](=O)[O-])c1`, the growth inhibition is reported as inactive: 14.8%. In the case of `COC(=O)C(CCl)(NC(C)=O)SC(C)=O` (configuration not stated), the growth inhibition is reported as inactive: -4.45%.
